{
  "source": "patent US6362207B1",
  "about": "“Methods of treating viral infections with benzimidazoles” (priority 1995, dated 2002)",
  "tested_on": "rhinovirus",
  "assay": "In vitro rhinovirus model",
  "assay_type": "cell-based",
  "data": [
    {"smiles": "c1ccc2[nH]c(-c3cscn3)nc2c1", "note": "[thiabendazole, 2-(4-thiazolyl)-1-H-benzimidazole]", "values": [
      {"measurement": "therapeutic index (TI), ratio of toxic dose to efficacious dose", "result": "1-2"}
    ]}
  ]
}
